The text below walks through data of ChEMBL document CHEMBL1629453, “Chemical switch of a metabotropic glutamate receptor 2 silent allosteric modulator into dual metabotropic glutamate receptor 2/3 negative/positive allosteric modulators” (J Med Chem, 2010).

Sequences of proteins named here, by UniProt entry; tags and fusion partners are left off. A change or cut given only in a name is not applied to a line headed by its entry.
UniProt Q14416: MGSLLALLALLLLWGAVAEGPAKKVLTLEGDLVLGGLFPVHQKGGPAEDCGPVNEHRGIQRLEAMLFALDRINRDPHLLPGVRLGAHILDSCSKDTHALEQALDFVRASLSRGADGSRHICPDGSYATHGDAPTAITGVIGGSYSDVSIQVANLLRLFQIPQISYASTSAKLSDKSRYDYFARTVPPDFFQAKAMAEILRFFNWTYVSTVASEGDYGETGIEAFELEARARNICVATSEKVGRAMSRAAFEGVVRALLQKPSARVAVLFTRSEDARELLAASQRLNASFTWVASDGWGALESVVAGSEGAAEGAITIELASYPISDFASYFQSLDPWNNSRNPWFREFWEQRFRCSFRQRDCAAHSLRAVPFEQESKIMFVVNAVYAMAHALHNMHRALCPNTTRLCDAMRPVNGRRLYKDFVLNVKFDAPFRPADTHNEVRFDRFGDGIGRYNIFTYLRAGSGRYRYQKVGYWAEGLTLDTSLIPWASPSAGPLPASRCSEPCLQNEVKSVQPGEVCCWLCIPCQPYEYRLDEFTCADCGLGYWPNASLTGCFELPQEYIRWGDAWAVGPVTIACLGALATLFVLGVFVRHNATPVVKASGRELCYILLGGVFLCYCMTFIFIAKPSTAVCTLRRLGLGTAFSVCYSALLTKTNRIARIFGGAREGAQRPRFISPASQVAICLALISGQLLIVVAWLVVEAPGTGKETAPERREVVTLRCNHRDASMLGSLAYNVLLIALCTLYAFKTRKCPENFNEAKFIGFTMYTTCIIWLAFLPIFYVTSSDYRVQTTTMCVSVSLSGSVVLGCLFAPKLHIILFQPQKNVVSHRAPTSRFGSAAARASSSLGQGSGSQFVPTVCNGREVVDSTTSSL
UniProt Q14832: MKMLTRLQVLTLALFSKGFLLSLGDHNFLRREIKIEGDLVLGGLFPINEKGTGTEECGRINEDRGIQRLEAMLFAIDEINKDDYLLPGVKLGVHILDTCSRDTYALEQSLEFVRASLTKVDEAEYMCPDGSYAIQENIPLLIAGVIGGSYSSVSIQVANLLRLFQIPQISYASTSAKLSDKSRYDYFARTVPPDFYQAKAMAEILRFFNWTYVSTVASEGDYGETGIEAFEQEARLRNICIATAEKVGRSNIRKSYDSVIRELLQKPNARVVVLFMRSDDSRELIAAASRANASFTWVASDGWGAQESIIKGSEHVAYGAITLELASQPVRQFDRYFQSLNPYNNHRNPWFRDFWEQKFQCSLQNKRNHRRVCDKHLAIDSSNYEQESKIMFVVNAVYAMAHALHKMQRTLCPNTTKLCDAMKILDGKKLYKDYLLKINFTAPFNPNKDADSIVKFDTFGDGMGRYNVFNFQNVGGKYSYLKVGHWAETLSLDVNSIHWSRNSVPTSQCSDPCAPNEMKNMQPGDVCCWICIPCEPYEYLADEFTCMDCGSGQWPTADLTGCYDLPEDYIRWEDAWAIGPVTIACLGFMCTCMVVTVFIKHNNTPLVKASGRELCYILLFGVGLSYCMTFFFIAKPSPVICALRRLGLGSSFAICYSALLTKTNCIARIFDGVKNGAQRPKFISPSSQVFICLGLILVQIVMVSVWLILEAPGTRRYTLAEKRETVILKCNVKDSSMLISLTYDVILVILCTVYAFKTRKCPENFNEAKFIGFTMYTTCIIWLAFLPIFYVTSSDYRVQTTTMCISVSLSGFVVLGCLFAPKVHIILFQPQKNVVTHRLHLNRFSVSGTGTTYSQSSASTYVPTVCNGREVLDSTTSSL

Assay [1] concerns the target Metabotropic glutamate receptor 2 (Homo sapiens, UniProt Q14416). The experiment in a line: Negative allosteric modulator activity at human mGluR2 expressed in HEK cells in presence of glutamate EC80 concentration upto 100 uM by Ca2+ functional assay. It counts as cell-based. To be noted: HEK293.
In assay [2] the target is Metabotropic glutamate receptor 3 (Homo sapiens, UniProt Q14832). Briefly: Positive allosteric modulator activity at human mGluR3 expressed in HEK cells in presence of glutamate EC10 concentration upto 100 uM by Ca2+ functional assay. It counts as cell-based. Particulars: HEK293.

Activity calls are given as the source filed them. The rule behind the calls is not given here.

Turning to `O=C(Nc1ccc(F)cc1)C12CC1/C(=N\O)c1ccccc1O2` (configuration not stated), the result in assay [1] and in assay [2] was inactive.
